Data on one compound can be found in ChEMBL document CHEMBL4385611, “Difluoromethylene at the γ-Lactam α-Position Improves 11-Deoxy-8-aza-PGE1 Series EP4 Receptor Binding and Activity: 11-Deoxy-10,10-difluoro-8-aza-PGE1 Analog (KMN-159) as a Potent EP4 Agonist” (J Med Chem, 2019).

Chains of the proteins cited; added tags and fusions are not shown. Lines headed by an entry give the natural chain unless they say otherwise; changes in a name come on top.
UniProt P43116: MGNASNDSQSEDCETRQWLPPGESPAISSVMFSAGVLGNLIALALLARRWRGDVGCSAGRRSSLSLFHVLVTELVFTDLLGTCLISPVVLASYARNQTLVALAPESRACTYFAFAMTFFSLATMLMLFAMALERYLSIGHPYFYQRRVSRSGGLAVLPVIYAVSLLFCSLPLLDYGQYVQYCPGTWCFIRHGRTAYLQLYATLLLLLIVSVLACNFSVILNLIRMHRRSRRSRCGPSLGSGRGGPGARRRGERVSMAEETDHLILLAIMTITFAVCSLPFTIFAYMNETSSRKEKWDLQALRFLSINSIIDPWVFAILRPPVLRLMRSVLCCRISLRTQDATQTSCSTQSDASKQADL

In assay [1] the target is T1, Prostaglandin E2 receptor EP2 subtype (Homo sapiens, UniProt P43116). Description: Agonist activity at human EP2 receptor expressed in HEK293T/17 cells assessed as increase in intracellular cAMP level incubated for 30 mins by ELISA. It is filed as functional, cell-based. On the technique in general: cAMP levels reflect the balance of adenylyl cyclase and phosphodiesterase activity.

The target in assay [2] is T1, Prostaglandin E2 receptor EP2 subtype. As to the kind of experiment: Displacement of [3H]PGE2 from human recombinant EP2 receptor expressed in HEK293 cell membranes after 120 mins by liquid scintillation counting method.
For assay [3] the target is unchanged. Description: Agonist activity at human EP2 receptor expressed in HEK293T/17 cells assessed as increase in GalphaS-mediated CREB activation measured after 6 to 24 hrs by SEAP reporter gene-based chemiluminescence assay. Format: functional, cell-based. (In general: A reporter such as luciferase makes a cellular process visible.)

In general, EC50 refers to the concentration at which the effect is half-maximal. The term Ki denotes the dissociation constant of the complex between target and ligand, obtained from inhibition or displacement. For `CCCCC[C@H](O)/C=C/[C@H]1[C@H](O)CC(=O)[C@@H]1C/C=C\CCCC(=O)O` [DINOPROSTONE], the EC50 in assay [1] was found to be 331 nM; in assay [3] it was 9.3 nM. Further, the Ki in assay [2] turned out to be 1.03 nM.
